Measured affinities in a library of Ab-95 light chain variants

Values reported by Engelhart et al. 2022, doi:10.1038/s41597-022-01779-4 (FLAb copy).

All variants were tested on one target, the spike HR2 peptide PDVDLGDISGINAS (SARS-CoV-2).

Ab-95 is the parent antibody, in scFv form: VH, then a (GGGGS)3 linker, then VL. The heavy chain is unchanged in all variants.
VH: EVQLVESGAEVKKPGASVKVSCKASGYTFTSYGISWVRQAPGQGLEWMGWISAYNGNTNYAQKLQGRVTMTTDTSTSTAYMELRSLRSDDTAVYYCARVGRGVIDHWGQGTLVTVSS
VL: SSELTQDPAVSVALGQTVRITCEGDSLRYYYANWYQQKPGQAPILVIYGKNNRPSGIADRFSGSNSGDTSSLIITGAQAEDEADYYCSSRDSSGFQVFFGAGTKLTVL

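The parent was found by panning a naive human phage display library on the peptide. Variants in AAYL52 differ from the parent at up to three CDR positions; double and triple changes were sampled at random. The assay is AlphaSeq: two haploid yeast populations carry antibody and antigen on their surface. The frequency of each diploid, read from paired DNA barcodes, reflects how well the two displayed proteins bind. A regression on co-assayed BCL2-family reference pairs converts the normalised counts of each replicate to an apparent Kd. Mating was done three times.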

Each variant is given by its three light chain CDRs, as the data file delimits them; those of the parent are EGDSLRYYYAN, GKNNRPS, SSRDSSGFQVF. All variants listed here change S93 of the VL, counted from its first residue. Values are log10 of the apparent Kd in nM; lower means stronger binding. "nd" means that the variant was in the library but no mating with the target was seen in that replicate; the authors take this as a sign of poor binding, and no number exists. Nonspecific signal, from three strains lacking the peptide, appeared in 28% of pairings of library AAYL52, centred on 3.91 (5% of these signals below 2.90); values are not corrected for it. Parent in this assay: reference entry 2.31, copy in this library 2.25.

- EGDSLRYYYAN | GKNNRPS | GSRDSKGFQLF: nd, nd, nd
- EGDSLRYYYAN | GKNNRPS | SCRDSWGFQYF: 3.63, 3.18, nd
- EGLSLRYYTAN | GKNNRPS | SSRDSNGFQVF: 3.09, 3.17, 3.09
- TGDSLRYYYAN | GKNNRWS | SSRDSHGFQVF: 3.35, 3.14, 2.78
- EGDSLRYHYAN | GKNNRPA | SSRDSGGFQVF: 1.65, 1.51, 1.16
- EGDSLRYYYAN | GKKNRPN | SSRDSKGFQVF: 4.19, nd, nd
- EGDSLKYYYAN | GKNNRPS | SSPDSFGFQVF: nd, nd, nd
- EGDSLRYYYNN | GKNNRPS | SSRDSQGFQQF: 2.97, 3.45, 2.45
- EGDSLRYYYAN | GKNNRPS | SSRDSQCFYVF: 4.74, 4.35, nd
- EGDSLRYYYAN | GKNNRPS | YSRDSVGFQFF: nd, nd, nd
- EGDSGRYYYAN | GKNNRPS | SSRDSDGFQVC: 3.14, 3.25, 2.47
- EGDSLRYYYAN | GKNNRPS | SSRYSAGFQVF: 2.69, 2.49, 2.18
- EGDSLRYYYAN | EKNVRPS | SSRDSNGFQVF: nd, 2.96, 3.13
- EGDSHRYYYAN | GSNNRPS | SSRDSTGFQVF: 2.30, 1.68, 1.55
- EGDSLRYYYAN | GKNNRPS | SSRWHCGFQVF: 3.54, 3.48, nd
- EGDSLRYYYAN | GKNNRMN | SSRDSCGFQVF: 3.65, nd, nd
- EGDSLRYYYAN | GKNNRPS | SSRDSHGFCVF: nd, nd, nd
- EGDCLRYYYAN | GKNNRPW | SSRDSKGFQVF: 4.18, nd, nd
- EGDSLRYYYAN | GTNRRPS | SSRDSIGFQVF: 3.99, 3.96, nd
- HGDSYRYYYAN | GKNNRPS | SSRDSHGFQVF: nd, nd, nd
- GGDSLKYYYAN | GKNNRPS | SSRDSLGFQVF: 2.24, 2.07, 0.98
- EGDSLRYYYAN | YKNNRPS | SSRGSGGFQVF: nd, 3.71, nd
- EGDSLRYYYAN | GKNNEPS | ASRDSVGFQVF: 4.33, 4.47, nd
- EGDSLRYYYAN | MKNNRPS | SSWDSLGFQVF: nd, nd, 3.49
- EGDSLRYYYAN | GKNNRPS | SSRDSTGVQHF: 2.94, 2.66, 1.68
- EGDSLREYMAN | GKNNRPS | SSRDSMGFQVF: 1.81, 2.04, 1.95
- EGPSLRYYYAN | GKNNRPS | SSRDSVGFQVV: 5.31, nd, nd
- IGDSLRYYYAN | GKNNRPS | SSRDSFGFQVF: 2.74, 2.58, 2.32
- EGDELRYYYAN | GKNNRPS | SSRDSKGFQVI: 4.42, 3.17, 3.93
- EGDSLVYYYAN | YKNNRPS | SSRDSHGFQVF: 3.08, 4.16, 4.30
- EGESLRYYYAN | GKNQRPS | SSRDSTGFQVF: 1.43, 1.56, 1.03
- EGDSLRYYPAN | GKNNRPS | SSRPSVGFQVF: 2.85, 2.54, 2.91
- EGDSLRYYAAN | FKNNRPS | SSRDSRGFQVF: 5.07, nd, nd
- EGDSLPYYYAN | GKNNRPS | SSRDSMGFQFF: nd, 5.47, 4.13
- EGDSLRYAYAN | GKNNRTS | SSRDSKGFQVF: nd, nd, 3.95
- EGDSLRYYYAN | GKNNWPS | ISRDSHGFQVF: 2.85, 3.04, 3.38
- EGDSLRYYLNN | GKNNRPS | SSRDSKGFQVF: 3.20, 3.75, nd
- EGDSLRYYYAN | GKQNRPS | SHRDSMGFQVF: 3.89, nd, nd
- EGNSLSYYYAN | GKNNRPS | SSRDSKGFQVF: 4.31, 3.11, 2.95
- EGDSLRYYYCN | GKNSRPS | SSRDSPGFQVF: 2.49, 2.66, 2.50
- EGDSLRYYYAN | GKNNRPS | SSRHITGFQVF: 2.30, 2.27, 2.19
- EGDKLRYYYAN | GKNNRPS | SSRDSPGFQVF: nd, 3.74, nd
- EGDQLRYYYAN | GKNNRPS | SSWDSCGFQVF: nd, nd, nd
- EGDSLRYYYAN | GKNERAS | SSRDSRGFQVF: 2.38, 2.20, 1.77
- EGDSLRYYPAN | NKNNRPS | SSRDSWGFQVF: 2.43, 1.94, 1.83
- ENDSLIYYYAN | GKNNRPS | SSRDSWGFQVF: nd, nd, nd
- EGHSLRYYYAR | GKNNRPS | SSRDSMGFQVF: 3.09, 3.12, 3.05
- EGDSLRYYYAN | GKNNRPS | SSRDSVGFQVF: 5.31, 3.08, 3.19
- EGDSLRYYYAN | GKNNKPS | SSRDSYGFQVF: 3.33, 3.01, nd

Repeated from above, the 3 best binders with a signal in all replicates:

{"CDR-L1": "EGESLRYYYAN", "CDR-L2": "GKNQRPS", "CDR-L3": "SSRDSTGFQVF", "replicates, log10 nM": "1.43, 1.56, 1.03"}
{"CDR-L1": "EGDSLRYHYAN", "CDR-L2": "GKNNRPA", "CDR-L3": "SSRDSGGFQVF", "replicates, log10 nM": "1.65, 1.51, 1.16"}
{"CDR-L1": "GGDSLKYYYAN", "CDR-L2": "GKNNRPS", "CDR-L3": "SSRDSLGFQVF", "replicates, log10 nM": "2.24, 2.07, 0.98"}